# High-throughput results deposited in PubChem BioAssay by Broad Institute.
# Rows were chosen to be rich in hits. Some 2.8% of all compounds tested hit in one or more screens of this group.
# UUG fidelity – modulators of start codon recognition fidelity in yeast; AID 602363; hit rate 0.13% among 350,000; activity score, % at 18.7 µM; S. cerevisiae UUG-firefly luciferase reporter, luminescence/redox ratio;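 active = replicate mean at a twofold rise or more, about +100% in these data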;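 note: firefly luciferase made from a UUG start codon reports start codon fidelity; reporter light over untreated wells divided by growth signal over untreated wells; some hits fall short of that in this replicate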
# esBAF inh – SWI/SNF esBAF complex inhibition | mouse ES cells, Bmi1-luciferase knock-in reporter, 24 h; 100% = twice the neutral-well signal | reporter increase, % at 12.5 µM | hit rate 2% among 350,000 | AID 602393; in the data active = activation above about 40%; inconclusive = no clear call, values can overlap the other calls;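 note: 0% = median of the plate's neutral control wells and 100% = double that signal; a rise in the Bmi1 reporter signal indicates esBAF inhibition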
# Statin myotox sup – suppression of simvastatin myotoxicity. C2C12 myotubes + simvastatin, ATP luminescence, 48 h; scaled: DMSO 0, geranylgeraniol control 100. rescue of ATP level, % at 7.49 µM. AID 602340. hit rate 0.78% among 330,000;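 active = mean ATP rescue above about 67%, or every replicate alone reaching that limit, limit read from the data, passing the limit was not always enough; inconclusive = no clear call, values can overlap the other calls; inactive = mean under the limit and some replicate under it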;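 note: myotubes were challenged with 10 µM simvastatin during compound exposure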
# PGC1a acetyl inh – modulators of PGC1a acetylation | U2OS PGC1a acetylation, AlphaScreen anti-acetyl-lysine; with virally co-expressed GCN5 acetyltransferase | inhibition, % at 15.6 µM | hit rate 0.17% among 350,000 | AID 651687;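 active = every replicate shows inhibition of at least 40%; inconclusive = mean inhibition at least 40% but some replicate below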;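 note: 0% = neutral control wells and 100% = positive control wells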
# PglD DTNB – inhibitors of Campylobacter jejuni PglD acetyltransferase. hit rate 0.098% among 360,000. purified PglD enzyme, DTNB colorimetric CoA detection. inhibition, % at 12.5 µM; in the data active = inhibition above about 16%, passing the limit was not always enough; inconclusive = no clear call, values can overlap the other calls
# E-sel inducer – induces E-selectin expression in human endothelial cells. P16581. HUVEC E-selectin immunofluorescence imaging; normalized: neutral wells 0, TNF-alpha wells 100. activation, % at 7.58 µM. hit rate 0.37% among 260,000. AID 686992;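 active = mean E-selectin-positive cell signal at least 10% of the positive control, reached in at least 60% of replicates, without over 20% cell loss; inconclusive = no rule given, readout overlaps actives, possibly toxicity-flagged; inactive = the rest, including those meeting only one limit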
#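 Test system: HUVEC | Signal: Immunofluorescence imaging | Read-out: Percent E-selectin-positive cells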
# PglD confirm – blocks Campylobacter jejuni PglD acetyltransferase activity; AID 743156; 320 tested, under 10 active; inhibition, % at 20 µM; Purified C. jejuni PglD, DTNB absorbance 412 nm; shares compounds with PglD DTNB;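 active = mean inhibition across replicates of at least 20% with every single replicate also at 20% or more; inconclusive = mean inhibition at least 20% but some replicate falls below 20%; inactive = mean inhibition under 20% and not all replicates reach it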;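 note: initial rate of CoA release by acetyl transfer from AcCoA to the UDP-4-amino sugar; 0% = median of neutral control wells and 100% = median of positive control wells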
# COX5a expr inh – reduces COX5a expression driven by PGC-1a in C2C12 myotubes; shares compounds with PGC1a acetyl inh; AID 743461; C2C12 myotubes PGC-1a adenovirus, COX5a qPCR; 45 tested, under 10 active; maximal activity, %;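 active = fitted dose curve reaching 40% activity at or below the highest valid dose tested; inconclusive = flat fit between 30% and 70%, or an unusable fit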
# AID743468 – change in PGC-1a target gene PDK4 expression, dose response, C2C12 myotubes, RT-qPCR, cherry-pick; shares compounds with PGC1a acetyl inh; PGC-1a adenovirus, PDK4 mRNA qPCR; PDK4 expression increase, % at 19.5 µM; 45 tested, under 10 active; AID 743468;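 active = fitted curve reaching a 40% PDK4 expression rise at or below the top valid tested dose; inconclusive = no clear call, values can overlap the other calls; inactive = the rest, including shifts the wrong way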
# * marks the source's active call; other numbers are inactive results; u = inconclusive; x = not tested or not shown; ! = not confirmed by another sample; [ ] = remark or other dose.
SMILES,UUG fidelity,esBAF inh,Statin myotox sup,PGC1a acetyl inh,PglD DTNB,E-sel inducer,PglD confirm,others
O=C(CN(C(=O)CNC(=O)c1cccs1)c1ccc(F)cc1)NC1CCCC1,-4.3,0.5,8.4,35.1,2.6,-0.1,x,
C[C@@H]1CN([C@H](C)CO)C(=O)c2cc(-c3ccc(F)cc3)cnc2O[C@H]1CN(C)Cc1cncnc1,25.8,-21.6,0.7,x,2.5,0.7,x,
CC(C)(C)c1cc[n+](-c2[nH]c(=O)sc2/C=N/NC([S-])=Nc2ccccc2)cc1,-23.5,-0.4,-4.5,17.6,21.1*,2.1,2.7,
COc1ccc(S(=O)(=O)N(C)C[C@H]2OCCCC[C@H](C)Oc3ccc(NS(C)(=O)=O)cc3C(=O)N([C@H](C)CO)C[C@H]2C)cc1,5.9,0.7,x,-16.7,0.9,0.4,x,
CCCC(=O)Nc1ccc2c(c1)OC[C@H](C)N(C(=O)c1ccccc1F)C[C@H](C)[C@@H](OC)CN(C)C2=O,x,x,x,-0.9,x,1.5,x,
C[C@@H]1CN([C@@H](C)CO)C(=O)c2cccc(NC(=O)Nc3ccc(F)cc3)c2O[C@H]1CN(C)S(C)(=O)=O,12.3,4.3,18.1,3.8,-0.5,x,x,
NCc1csc(Nc2cc(Oc3ccccc3)ncn2)n1,-35.4,0.0,0.8,12.0,21.4*,u,0.3,
CCCC#Cc1cnc2c(c1)C(=O)N([C@H](C)CO)C[C@@H](C)[C@H](CN(C)C(=O)c1ccc(F)cc1)O2,23.0,3.1,-6.5,-2.4,-3.2,0.1,x,
CCC(=O)Nc1ccccc1C(=O)OCC(=O)Nc1ccc(S(N)(=O)=O)cc1,-12.6,-4.9,-13.0,53.4,30.8*,x,-2.9,
CCCCNc1cc(=O)oc2ccccc12,x,12.4,x,x,x,x,x,
COC(CNc1cc(=O)oc2ccccc12)OC,-11.4,-0.7,-13.3,6.8,22.8*,x,0.5,
COc1ccc(-c2ccc([C@@H]3[C@@H](CO)N4C(=O)CNC[C@H]34)cc2)cc1,x,x,x,-2.4,x,0.2,x,
Fc1ccc(CNC(=S)NC2CCCCC2)cc1,-24.5,x,x,-0.7,34.8*,x,2.5,
CCC(OC(=O)c1ccco1)C(=O)NCc1ccc2c(c1)OCO2 (stereo not drawn),-2.2,0.5,-0.6,-13.4,22.2*,x,3.3,
CCC(OC(=O)c1ccco1)C(=O)NCc1ccc(C)cc1 (stereo not drawn),-19.3,2.3,-9.1,1.2,0.8,x,x,
COc1ccc(-c2cc(-c3ccc(OC)cc3)[nH]n2)cc1,-4.4,64.0*,8.7,-44.7,31.8*,x,-3.5,
COc1ccc(-c2cc(-c3cc(C)ccc3O)[nH]n2)cc1,x,x,x,-23.3,x,x,x,
O=C(C[C@@H]1CC[C@@H](NC(=O)Nc2cc(F)ccc2F)[C@H](CO)O1)NCc1ccc2c(c1)OCO2,33.5,-13.4,-10.7,-1.6,3.4,0.1,x,
C/C(=N/NC(=O)c1cccs1)c1ccc(NC(=O)COc2ccc(Cl)cc2Cl)cc1,-16.6,36.5,-62.4,2.1,21.4*,x,0.5,
C[C@H](NC(N)=O)C(=O)Nc1ccc2c(c1)OCO2,-9.4,x,x,7.1,22.1*,5.2,2.9,
C[C@@H]1CN([C@H](C)CO)C(=O)c2cccc(NC(=O)NC3CCCCC3)c2O[C@H]1CN(C)C,-5.8,4.0,7.1,7.7,-2.7,-3.6,x,
CCOc1ccc(N2CC(C(=O)NCCc3ccc(S(N)(=O)=O)cc3)CC2=O)cc1 (stereo not drawn),-14.0,-5.8,-0.2,2.0,30.7*,0.0,u,
CCOc1ccccc1N1CC(C(=O)NCCc2ccc(S(N)(=O)=O)cc2)CC1=O (stereo not drawn),-7.8,-4.2,-0.7,0.4,1.6,x,x,
Cc1ccc2nc(C)cc(OCC(=O)O)c2c1,-7.6,-9.7,-0.3,-59.0,20.8*,7.2,-4.0,

# 5 records drawn at random from the list so far:
SMILES,UUG fidelity,esBAF inh,Statin myotox sup,PGC1a acetyl inh,PglD DTNB,E-sel inducer,PglD confirm,others
C[C@@H]1CN([C@@H](C)CO)C(=O)c2cccc(NC(=O)Nc3ccc(F)cc3)c2O[C@H]1CN(C)S(C)(=O)=O,12.3,4.3,18.1,3.8,-0.5,x,x,
CCC(OC(=O)c1ccco1)C(=O)NCc1ccc(C)cc1 (stereo not drawn),-19.3,2.3,-9.1,1.2,0.8,x,x,
CCCC#Cc1cnc2c(c1)C(=O)N([C@H](C)CO)C[C@@H](C)[C@H](CN(C)C(=O)c1ccc(F)cc1)O2,23.0,3.1,-6.5,-2.4,-3.2,0.1,x,
Fc1ccc(CNC(=S)NC2CCCCC2)cc1,-24.5,x,x,-0.7,34.8*,x,2.5,
C/C(=N/NC(=O)c1cccs1)c1ccc(NC(=O)COc2ccc(Cl)cc2Cl)cc1,-16.6,36.5,-62.4,2.1,21.4*,x,0.5,

# (next part)
SMILES,UUG fidelity,esBAF inh,Statin myotox sup,PGC1a acetyl inh,PglD DTNB,E-sel inducer,PglD confirm,others
O=C(NC1CCCC1)[C@H]1[C@H](CO)[C@H]2Cn3c(ccc(-c4ccncc4)c3=O)[C@H]2N1CCc1ccccc1,x,-3.4,-18.2,x,-0.7,-0.3,x,
O=S(=O)(NC1CCN(Cc2ccccc2)CC1)c1ccc(F)c(F)c1,-16.4,-6.0,-57.4,8.6,22.1*,-0.7,2.6,
CCOC(=O)C1CCCN(CCC(=O)Nc2ccc(Br)c(C)c2)C1 (stereo not drawn),-7.1,7.5,2.5,-2.5,71.4*,0.2,0.1,
C=C(C)C(=O)Nc1cccc(C2=NOC3(C2)C[C@@H](C(N)=O)N(C(=O)C2(C)CC2)C3)c1 (stereo partly drawn),0.9,6.5,-5.8,13.0,22.9*,-0.3,1.9,
Cn1nnnc1SCC(=O)NCc1cccc(C(=O)O)c1,-9.5,-4.6,-15.3,u,-0.8,x,x,COX5a expr inh=-25.7;AID743468=-5.7
O=C(Nc1ccc(N2CCN(Cc3ccccc3F)CC2)cc1)c1ccccc1[N+](=O)[O-],x,x,x,-21.7,x,x,x,
O=C(Nc1ccc(N2CCN(Cc3ccccc3F)CC2)cc1)c1ccc([N+](=O)[O-])o1,25.8,x,x,72.7*,-4.7,-0.4,x,COX5a expr inh=-40.1;AID743468=14.6
Cc1ccc(-c2nc(NC(=O)c3nn(C)cc3[N+](=O)[O-])sc2C)cc1,0.4,-83.5,-135.4,95.7*,-2.7,x,x,COX5a expr inh=-24.9;AID743468=4.0[6.8 µM]
Cc1ccc(Cn2ccc(NC(=O)c3nn(C)cc3[N+](=O)[O-])n2)cc1,-17.6,31.2,5.6,-144.8,2.3,x,x,
COc1ccc(NC(=O)N(C)C[C@@H]2OCCCC[C@@H](C)Oc3ccc(NC(=O)c4ccccc4)cc3C(=O)N([C@H](C)CO)C[C@@H]2C)cc1,5.5,1.7,x,7.6,-1.8,-0.1,x,
N#Cc1ccc(-c2ccc(C3[C@@H]4CN(C(=O)Nc5ccc(C(F)(F)F)cc5)C[C@H]3N4)cc2)cc1 (stereo partly drawn),x,x,x,-4.6,x,-0.2,x,
Cc1ccc(-c2ccc(C3[C@@H]4CN(C(=O)Nc5ccc(C(F)(F)F)cc5)C[C@H]3N4)cc2)cc1 (stereo partly drawn),x,x,x,69.7*!,x,-0.2,x,COX5a expr inh=-32.2;AID743468=-14.8
CN(C)C(=O)[C@H]1[C@H](CO)[C@H]2Cn3c(ccc(-c4ccccc4F)c3=O)[C@@H]1N2C(=O)c1ccccc1,x,-2.3,11.8,x,-1.0,-0.3,x,
CCCN(CC)c1ncnc2[nH]ncc12,-23.3,-11.0,-0.6,u,0.2,1.2,x,COX5a expr inh=15.3;AID743468=61.6*
COC(=O)c1nn(-c2ccccc2)ccc1=O,x,x,x,44.3*,x,x,x,COX5a expr inh=-33.4;AID743468=-11.0
C=CS(=O)(=O)N(Cc1ccccc1)[C@H](CO)CC(C)C,-5.0,-4.6,-1.3,-15.8,-108.9,-0.2,x,
